We go through one compound from ChEMBL document CHEMBL1125722 (J Med Chem, 1991).

Amino acid sequences for entries named in this document (tags omitted).
UniProt P61169, whole entry: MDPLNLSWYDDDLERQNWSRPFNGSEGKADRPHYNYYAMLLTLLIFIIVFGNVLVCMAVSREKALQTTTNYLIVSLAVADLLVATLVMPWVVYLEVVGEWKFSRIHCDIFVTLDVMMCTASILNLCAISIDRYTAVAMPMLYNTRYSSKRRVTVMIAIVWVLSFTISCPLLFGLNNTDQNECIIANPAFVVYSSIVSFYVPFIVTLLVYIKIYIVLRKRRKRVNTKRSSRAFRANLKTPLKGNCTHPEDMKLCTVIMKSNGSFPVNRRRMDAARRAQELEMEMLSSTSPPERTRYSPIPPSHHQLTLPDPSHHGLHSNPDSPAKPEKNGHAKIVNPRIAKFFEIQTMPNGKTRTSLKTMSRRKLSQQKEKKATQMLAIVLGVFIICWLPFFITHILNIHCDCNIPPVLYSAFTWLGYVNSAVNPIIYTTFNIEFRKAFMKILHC

pIC50: −log10 of the molar value.

This assay concerns the target D(2) dopamine receptor (Rattus norvegicus, UniProt P61169). As to the kind of experiment: Neuroleptic activity in terms of [3H]spiroperidol binding in rat striatal membrane to Dopamine receptor D2. The format is cell membranes, Striatum.

For `CN1CCc2cccc3c2[C@H]1Cc1ccc(O)c(O)c1-3` [APOMORPHINE], the negative logarithm of the IC50 (pIC50) (commonly the IC50 on a negative log10 scale, so that one unit is a factor of ten) was 6.52.
